Here are results for 1 compound from ChEMBL document CHEMBL4004807 (J Med Chem, 2017).

The chains behind the UniProt entries cited, without tags or fusion partners. Where a name states a change or a piece, a line headed by the entry shows the natural chain unless it says otherwise.
UniProt P43119: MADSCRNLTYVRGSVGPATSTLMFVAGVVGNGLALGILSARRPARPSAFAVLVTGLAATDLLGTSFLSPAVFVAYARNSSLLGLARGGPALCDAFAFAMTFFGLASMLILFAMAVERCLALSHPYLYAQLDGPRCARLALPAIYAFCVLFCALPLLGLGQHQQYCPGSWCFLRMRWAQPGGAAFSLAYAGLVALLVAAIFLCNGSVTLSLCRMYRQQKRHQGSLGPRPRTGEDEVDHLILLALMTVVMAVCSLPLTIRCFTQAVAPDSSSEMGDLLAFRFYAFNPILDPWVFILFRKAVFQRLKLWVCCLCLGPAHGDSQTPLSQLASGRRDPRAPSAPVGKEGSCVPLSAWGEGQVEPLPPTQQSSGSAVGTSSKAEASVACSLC

This test deals with Prostacyclin receptor (Homo sapiens, UniProt P43119). As to the kind of experiment: Agonist activity at IP receptor in PAH patient-derived primary pulmonary arterial smooth muscle cells assessed as induction of cAMP levels after 1 hr by HTRF method. The class given is functional.

Each structure is given as a SMILES string. Activity calls are given as the source filed them. The rule behind the calls is not given here.

For the compound `O=C(O)COC[C@H]1CC[C@H](COC(=O)N(c2ccccc2)c2ccc(Cl)cc2)CC1`, the result was Active.
